# Literature values in publication PMC11852496, “A Modular Customizable Ligand-Conjugate (LC) System Targeting Ghrelin O-Acyltransferase” (Biomolecules, 2025).
# By UniProt entry, the sequences of proteins in these tests, tags left out.
# UniProt Q96T53, whole entry: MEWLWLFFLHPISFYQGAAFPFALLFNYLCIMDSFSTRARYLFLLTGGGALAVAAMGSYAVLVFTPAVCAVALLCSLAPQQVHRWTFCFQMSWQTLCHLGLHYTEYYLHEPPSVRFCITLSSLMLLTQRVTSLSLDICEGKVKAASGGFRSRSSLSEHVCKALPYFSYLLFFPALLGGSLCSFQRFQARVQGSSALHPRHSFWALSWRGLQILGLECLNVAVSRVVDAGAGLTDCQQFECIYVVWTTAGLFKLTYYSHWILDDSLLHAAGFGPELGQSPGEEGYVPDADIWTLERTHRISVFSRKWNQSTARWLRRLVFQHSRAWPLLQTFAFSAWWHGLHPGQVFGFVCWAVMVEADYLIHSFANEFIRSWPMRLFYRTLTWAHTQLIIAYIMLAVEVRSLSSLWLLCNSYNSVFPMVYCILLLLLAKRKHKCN
# Biological target: hGOAT (human ghrelin O-acyltransferase) (Homo sapiens, UniProt Q96T53)
# Details: read-out: IC50 (GOAT); previously reported ligands, Figure 1A; cited from earlier work
smiles,measurement,value
CC(C)C[C@H](NC(=O)[C@H](Cc1cccc2ccccc12)NC(=O)[C@H](CN)NC(=O)[C@H](CO)NC(=O)CN)C(=O)N[C@@H](CO)C(=O)N1CCC[C@H]1C(=O)N[C@H](C(N)=O)[C@@H](C)O,IC50,6 nM
